Patent publication US20240100068A1, “METHODS COMPRISING ADMINISTRATION OF A GLUCOCORTICOID RECEPTOR AGONIST AND AN INHIBITOR OF CALCINEURIN” (Chengdu Anticancer Bioscience, Ltd., priority 2022, published 2024)
Where two headings read alike, the source gives them in different places.

System: T2MycNick cells
Experiment: Testing compounds for their ability of restoring contact inhibition (vacuolation, cell density)
Type: cell-based, murine
Details: Mus musculus

For `C[C@@H]1C[C@H]2[C@@H]3C[C@H](F)C4=CC(=O)C=C[C@]4(C)[C@@]3(F)[C@@H](O)C[C@]2(C)[C@@]1(O)C(=O)CO` [CI044, Flumethasone], which minimal effective concentration (read-out: Conc that reduces > 50% in the cell density) is on record?
The minimal effective concentration was 2.5 µM.

What about the minimal effective concentration (read-out: Min. effective conc. that elicits vacuolation) of the same compound?
The minimal effective concentration was 0.625 µM.
